Values of other authors in publication PMC9790683 (Birth Defects Research, 2022).
Like-named read-outs stand apart in the source and are kept apart here.

Settings: ref OECD 2020, cited from earlier work

For `CCCCC(CC)C(=O)O` (centres unmarked) [EHA, 2‐Ethylhexanoic acid], the “Human OED_max fu model” value (from CALUX Min EC10 cell-total) is given as 2.6 mg/kg and the “Human OED_max fu model” value (from mEST HDAC inhibition, day 10 EC10) is given as 10 mg/kg.
